The values that follow come from patent publication US20040081647.

The subject of data set [1] is fluorometric derivative of substrate S1 (HAE-PT).
Data set [2] relates to fluorometric derivative of substrate S2 (PT: NH2-GGVR-).

Take “standard human thrombin preparation (Sigma)”: the figures for the “specificity constant Kcat/Km” value in data set [1] and in data set [2] were 8.9e+06 M⁻¹ s⁻¹ and 1.03e+07 M⁻¹ s⁻¹, respectively.
